# The list shows a part of the results, in another mix than the full data. Inconclusive results are not listed. Calls of active or inactive are those of the source. Calls come from the whole dose curve; as a rule, active = well fitted inhibition curve with a large enough effect in the signal ratio in the repeat runs (not every such curve was filed as active); inconclusive = weak or mixed curves, or effect the other way; inactive = no such curve, though single readings can be large or run the other way; the % refers to the signal ratio.
# The chains behind the UniProt entries cited, without tags or fusion partners.
# UniProt Q92731, whole entry, looked up: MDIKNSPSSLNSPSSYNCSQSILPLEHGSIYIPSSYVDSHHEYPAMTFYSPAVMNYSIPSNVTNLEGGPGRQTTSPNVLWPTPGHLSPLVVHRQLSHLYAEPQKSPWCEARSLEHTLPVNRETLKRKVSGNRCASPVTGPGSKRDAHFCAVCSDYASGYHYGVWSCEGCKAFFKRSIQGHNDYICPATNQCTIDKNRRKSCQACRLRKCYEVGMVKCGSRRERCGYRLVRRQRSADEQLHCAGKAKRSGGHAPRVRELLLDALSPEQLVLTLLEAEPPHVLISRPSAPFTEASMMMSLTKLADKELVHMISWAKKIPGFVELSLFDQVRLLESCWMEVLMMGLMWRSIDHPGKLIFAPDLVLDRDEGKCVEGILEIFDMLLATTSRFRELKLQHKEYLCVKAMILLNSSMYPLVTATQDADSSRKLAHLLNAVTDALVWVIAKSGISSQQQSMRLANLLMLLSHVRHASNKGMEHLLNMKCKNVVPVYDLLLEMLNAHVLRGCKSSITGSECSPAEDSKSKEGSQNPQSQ
# Target: Estrogen receptor beta (Homo sapiens) (UniProt Q92731)
# Experiment: qHTS assay to identify small molecule antagonists of the estrogen receptor beta (ER-beta) signaling pathway (AID 1259378)
# Settings: ER-beta-UAS-bla HEK293T, beta-lactamase FRET ratio, 16 h; at 19 µM (top of the series)
# Source text: National Center for Advancing Translational Sciences [NCATS]
# NIH Chemical Genomics Center [NCGC]
# U.S. Environmental Protection Agency [EPA]
# National Institutes of Environmental Health Sciences [NIEHS]
# National Toxicology Program [NTP]
# U.S. Food and Drug Administration [FDA]
# Estrogen receptor (ER), a nuclear hormone receptor, plays an important role in development, metabolic homeostasis and reproduction. Two subtypes of ER, ER-alpha and ER-beta, have similar expression patterns with some uniqueness in both types. Endocrine disrupting chemicals (EDCs) and their interactions with steroid hormone receptors like ER causes disruption of normal endocrine function. To identify the compounds that inhibit ER signaling, an ER-beta-UAS-bla GripTite cell line (Life Technologies, Madison, WI, USA) containing a beta-lactamase reporter gene under the control of an UAS response element was used to screen Tox21 10K compound library.
# Tox21 Assay Protocol Summary:
# ER-beta-UAS-bla HEK293T cells were dispensed at 2,000 cells/4 uL of assay medium containing 2% charcoal stripped FBS per well into black wall/clear-bottom 1536-well plates using a Multidrop Combi (ThermoFisher Scientific, Waltham, MA) dispenser. After the assay plates were incubated at a 37C and 5% CO2 for 6 hr, 23 nL of compounds dissolved in DMSO, positive controls or DMSO only was transferred to the assay plate by a Pintool station (Kalypsys, San Diego, CA), followed by addition of 1 uL (1nM as final concentration) of 17-beta-estradiol (E2) in assay medium using a BioRAPTR FRD (Flying Reagent Dispenser, Aurora Discovery, San Diego, CA). The plates were incubated at 37C and 5% CO2 for 16 hr. Then 1 uL of LiveBLAzerTM B/G FRET substrate was added using a Flying Reagent Dispenser, the plates were incubated at room temperature for 2 hours, and fluorescence intensity was measured by an Envision plate reader (PerkinElmer, Shelton, CT).
# % is set by controls: 0 for no effect and ±100 for the full control effect.
row,Compound,"activity, negative = inhibition"
1,CCC(C)(OOC(C)(C)C)OOC(C)(C)C,inactive: -4.61%

# Same assay, conditions: ER-beta-UAS-bla HEK293T, beta-lactamase FRET ratio, 16 h; at 42.5 µM (top of the series)
row,Compound,"activity, negative = inhibition"
1,NC(=O)Nc1ccc([As](=O)(O)O)cc1,inactive: -0.222%
2,CN(C(=O)Cc1ccc(Cl)c(Cl)c1)[C@H]1CC[C@@]2(CCCO2)C[C@@H]1N1CCCC1,inactive: -9.16%
3,CN(C(=O)Cc1ccccc1)[C@H]1CC[C@@]2(CCCO2)C[C@@H]1N1CCCC1,inactive: -10.2%

# Same assay, conditions: ER-beta-UAS-bla HEK293T, beta-lactamase FRET ratio, 16 h; at 92.4 µM (top of the series)
row,Compound,"activity, negative = inhibition"
1,O=P(Cl)(Oc1ccccc1)Oc1ccccc1,inactive: 1.95%
2,COC(=O)Cl,inactive: -1.09%
3,CN(N=O)C(=N)N[N+](=O)[O-],inactive: 1.36%
4,O=C(Cl)OCCOC(=O)Cl,inactive: -18.2%
5,CCCCC(CC)CO[P+](=O)OCC(CC)CCCC (stereo not drawn),inactive: -7.28%
6,NC(=O)Nc1ccc([As](=O)(O)O)cc1,inactive: 1.58%
7,O=[p+]1oc2ccccc2c2ccccc21 (stereo not drawn),inactive: -0.469%
8,CN(C(=O)Cc1cccc2occc12)[C@H]1CC[C@@]2(CCCO2)C[C@@H]1N1CCCC1,inactive: 2.54%
9,COP(=S)(Cl)OC,inactive: 11.4%
10,ClP(Cl)c1ccccc1,inactive: -2.01%
11,O=P(Cl)(Cl)c1ccccc1,inactive: 20.1%
12,CCCCOP(OCCCC)OCCCC,inactive: -1.17%
13,CCOC(=O)Cl,inactive: 7.49%
14,CCOP(=S)(CC)Sc1ccccc1 (stereo not drawn),inactive: -0.332%

# Reference: PubChem BioAssay (Tox21)
